The values below come from publication PMC3517300 (Journal of neurochemistry, 2012).

By UniProt entry, the sequences of proteins in these tests, tags left out.
UniProt Q01959, whole entry: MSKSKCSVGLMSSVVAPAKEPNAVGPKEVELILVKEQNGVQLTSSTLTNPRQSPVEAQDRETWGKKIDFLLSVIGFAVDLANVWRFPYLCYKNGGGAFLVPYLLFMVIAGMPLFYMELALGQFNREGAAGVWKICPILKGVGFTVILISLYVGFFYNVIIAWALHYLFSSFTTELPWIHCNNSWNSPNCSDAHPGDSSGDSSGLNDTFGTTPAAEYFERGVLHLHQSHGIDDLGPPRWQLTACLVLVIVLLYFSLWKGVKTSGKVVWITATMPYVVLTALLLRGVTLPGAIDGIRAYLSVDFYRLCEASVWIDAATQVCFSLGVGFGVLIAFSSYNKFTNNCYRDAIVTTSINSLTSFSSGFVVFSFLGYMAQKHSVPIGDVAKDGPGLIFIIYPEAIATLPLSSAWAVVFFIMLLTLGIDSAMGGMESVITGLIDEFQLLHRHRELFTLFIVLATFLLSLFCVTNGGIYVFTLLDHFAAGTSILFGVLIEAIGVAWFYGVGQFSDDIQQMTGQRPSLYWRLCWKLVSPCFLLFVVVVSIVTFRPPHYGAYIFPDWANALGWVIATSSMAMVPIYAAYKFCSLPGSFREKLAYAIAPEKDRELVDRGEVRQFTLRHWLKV
UniProt Q01959, whole entry W84L: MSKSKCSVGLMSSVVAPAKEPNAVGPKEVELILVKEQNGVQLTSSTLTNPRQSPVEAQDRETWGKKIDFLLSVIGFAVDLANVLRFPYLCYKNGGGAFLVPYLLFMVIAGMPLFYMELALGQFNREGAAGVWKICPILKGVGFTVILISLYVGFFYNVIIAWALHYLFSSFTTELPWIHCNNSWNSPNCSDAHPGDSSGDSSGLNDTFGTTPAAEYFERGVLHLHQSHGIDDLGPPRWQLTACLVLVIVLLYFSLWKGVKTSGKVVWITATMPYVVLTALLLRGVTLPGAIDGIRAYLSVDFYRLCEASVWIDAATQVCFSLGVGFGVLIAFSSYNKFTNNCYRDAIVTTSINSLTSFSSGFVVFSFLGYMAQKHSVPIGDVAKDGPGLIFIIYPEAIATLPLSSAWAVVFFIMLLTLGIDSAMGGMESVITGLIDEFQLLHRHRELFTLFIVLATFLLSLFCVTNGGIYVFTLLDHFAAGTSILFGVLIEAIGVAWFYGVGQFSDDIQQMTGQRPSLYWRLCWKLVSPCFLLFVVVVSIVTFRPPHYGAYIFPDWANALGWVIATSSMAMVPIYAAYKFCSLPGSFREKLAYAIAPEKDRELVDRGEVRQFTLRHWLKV

Read-outs that look alike come from different tables or passages of the source.

Experiment [1] addresses human dopamine transporter (DAT WT) (Homo sapiens, UniProt Q01959). The experiment in a line: [^3H]CFT binding in intact HEK 293-hDAT cells.
Another experiment addresses W84L DAT mutant (Homo sapiens, UniProt Q01959, W84L). The experiment in a line: [^3H]CFT binding in intact HEK 293 cells expressing W84L DAT. As to conditions: W84L hDAT.

The Kd is the concentration at which binding is half-saturated.

Turning to “(–)-2-β-carbomethoxy-3-β-(4-fluorophenyl)tropane [CFT]”, the “[^3H]CFT Binding Bmax” value was determined as 3.98 ± 0.62 pmol/mg in experiment [1] (5.0 mM mβCD then 200 µM CHOL 2 hrs); 3.07 ± 0.57 pmol/mg in experiment [1] (cells pretreated 5.0 mM mβCD 30 min 37°C); 3.68 ± 0.46 pmol/mg in experiment [1] (vehicle (control), 15 min, 25°C); 4.42 ± 0.73 pmol/mg on W84L DAT mutant (cells pretreated 2.5 mM mβCD 30 min 37°C); 4.77 ± 0.85 pmol/mg at W84L DAT mutant (vehicle). The Kd in experiment [1] (read-out: [^3H]CFT Binding Kd, 5.0 mM mβCD then 200 µM CHOL 2 hrs) came out at 14.6 ± 2.07 nM; in experiment [1] (read-out: [^3H]CFT Binding Kd, cells pretreated 5.0 mM mβCD 30 min 37°C), 17.8 ± 2.17 nM; in experiment [1] (read-out: [^3H]CFT Binding Kd, vehicle (control), 15 min, 25°C) it was 15.6 ± 1.97 nM; at W84L DAT mutant (read-out: [^3H]CFT Binding Kd, vehicle) it was 2.58 ± 0.46 nM.
